{"source": "patent US20150025077A1", "about": "“GGA AND GGA DERIVATIVES COMPOSITIONS THEREOF AND METHODS FOR TREATING NEURODEGENERATIVE DISEASES INCLUDING PARALYSIS INCLUDING THEM” (COYOTE PHARMACEUTICALS, INC., priority 2012, published 2015)", "key": {"[1]": {"test_system": "Sod1 mutant mice", "type": "in vivo", "settings": "CNS-102 12 mg/kg or Riluzole 8 mg/kg daily oral, vs vehicle", "description": "Values represent means±SEMs.\nSubjects were weighed and tested for Grip Strength, and assigned Clinical and Neurological scores three times a week beginning at P90 and five times a week beginning at P100. The table below summarizes the experimental design of the study.\nThe grip strength test assesses motor function and control of the fore- and hindpaws. Mice were allowed to grab the bars on the Chatillon DFIS-10 digital force gauge (Largo, Fla.), while being gently pulled parallel away from the bars by the tail. The maximum force measured prior to release of the subject's paw from the bar was recorded.\nAnimals were scored using the scoring system tabulated below."}, "[2]": {"assay": "Blood tests (chemistry, hematology) in Sod1 mutant and wild type mice"}}, "data": [{"smiles": "Nc1nc2ccc(OC(F)(F)F)cc2s1", "note": "[Riluzole, reference compound]", "values": [{"measurement": "clinical and neuroscore testing", "setting": "[1]", "result": "tended to outperform group D"}, {"measurement": "ALBUMIN", "setting": "[2]; CNS-102 12 mg/kg or Riluzole 8 mg/kg daily oral (Example 26 table)", "result": 2.7, "unit": "mg/dL"}, {"measurement": "ALBUMIN", "setting": "[2]; CNS-102 12 mg/kg or Riluzole 8 mg/kg daily oral, P100", "result": 2700, "unit": "mg/dL"}]}]}
